Assay [1] concerns the target Serotonin 3 (5-HT3) receptor (Rattus norvegicus, UniProt P35563+Q9JJ16). The experiment in a line: The compound was tested for the binding affinity against 5-hydroxytryptamine 3 receptor using [3H]zacopride as radioligand. The assay is classed as protein-complex assay.
Assay [2] has as its target 5-hydroxytryptamine receptor 1A (Rattus norvegicus, UniProt P19327). Kind of assay: The compound was tested for the binding affinity against 5-hydroxytryptamine 1A receptor using [3H]8-OH-DPAT as radioligand.

Protein sequences, listed by entry. Tags and fused reporters are not part of them. Lines headed by an entry give the natural chain unless they say otherwise; changes in a name come on top.
UniProt P35563, whole entry: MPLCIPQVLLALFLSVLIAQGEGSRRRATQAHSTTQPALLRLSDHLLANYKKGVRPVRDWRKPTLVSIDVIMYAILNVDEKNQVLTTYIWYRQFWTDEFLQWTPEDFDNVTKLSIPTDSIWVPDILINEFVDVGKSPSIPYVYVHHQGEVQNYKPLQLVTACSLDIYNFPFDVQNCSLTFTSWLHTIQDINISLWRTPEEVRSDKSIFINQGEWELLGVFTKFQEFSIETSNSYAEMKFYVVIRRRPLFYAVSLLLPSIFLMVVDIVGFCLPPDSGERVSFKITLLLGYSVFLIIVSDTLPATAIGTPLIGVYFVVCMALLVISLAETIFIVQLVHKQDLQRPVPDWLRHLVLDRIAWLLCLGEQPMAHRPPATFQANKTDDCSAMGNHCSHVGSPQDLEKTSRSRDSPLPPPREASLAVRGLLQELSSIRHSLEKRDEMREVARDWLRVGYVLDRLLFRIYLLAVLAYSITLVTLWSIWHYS
UniProt Q9JJ16: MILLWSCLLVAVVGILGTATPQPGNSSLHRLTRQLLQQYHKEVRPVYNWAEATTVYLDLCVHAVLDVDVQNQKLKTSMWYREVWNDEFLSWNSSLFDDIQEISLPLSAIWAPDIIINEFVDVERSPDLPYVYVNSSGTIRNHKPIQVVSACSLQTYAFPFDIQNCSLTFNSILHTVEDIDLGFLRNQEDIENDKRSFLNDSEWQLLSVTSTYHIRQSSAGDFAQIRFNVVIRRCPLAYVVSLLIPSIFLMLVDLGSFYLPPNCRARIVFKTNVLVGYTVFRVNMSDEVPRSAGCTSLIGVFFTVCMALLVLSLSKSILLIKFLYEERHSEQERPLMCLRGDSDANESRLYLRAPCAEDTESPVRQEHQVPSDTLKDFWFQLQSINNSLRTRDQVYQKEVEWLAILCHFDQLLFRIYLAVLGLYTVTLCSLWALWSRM
UniProt P19327, whole entry: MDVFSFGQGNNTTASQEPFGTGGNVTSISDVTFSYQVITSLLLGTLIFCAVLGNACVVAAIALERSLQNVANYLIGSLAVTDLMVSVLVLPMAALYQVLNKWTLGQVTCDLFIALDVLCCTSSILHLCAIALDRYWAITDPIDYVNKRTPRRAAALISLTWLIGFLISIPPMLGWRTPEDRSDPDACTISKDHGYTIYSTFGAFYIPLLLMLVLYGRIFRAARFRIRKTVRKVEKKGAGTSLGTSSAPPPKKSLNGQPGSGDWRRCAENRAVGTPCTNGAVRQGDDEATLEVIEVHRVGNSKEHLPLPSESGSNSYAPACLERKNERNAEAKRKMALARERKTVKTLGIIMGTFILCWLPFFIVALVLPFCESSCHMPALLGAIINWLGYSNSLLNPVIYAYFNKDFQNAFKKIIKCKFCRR

pKi: −log10 of the molar value.

`NCCc1c[nH]c2ccc(O)cc12` [SEROTONIN]: the pKi in assay [1] was 6.40; in assay [2], 8.80.

The term pKi denotes the negative decadic logarithm of the Ki, by convention in mol/L.

The values above are taken from ChEMBL document CHEMBL1132449, “Pyrroloquinoxaline derivatives as high-affinity and selective 5-HT(3) receptor agonists: synthesis, further structure-activity relationships, and biological studies” (J Med Chem, 1999).
